In the series the test system is mitochondrial membrane potential (MMP) in AREc32 cells. In words: Disruption of mitochondrial membrane potential (m-MPI red/green ratio), MitoOxTox. The settings on record: specificity ratio of MMP effect: IC10 (ImageXpress)/EC10 (eq 4).

With `Cc1cc(O)ccc1Cl` [4-Chloro-3-methylphenol], the SRcytotoxicity is listed as 11.9.
